Reference: patent US11198695B2, “Fused ring derivative having MGAT-2 inhibitory activity” (Shionogi & Co., Ltd., priority 2017, dated 2021)
≈ marks a conversion by molar mass, not a printed value. Read-outs that look alike come from different tables or passages of the source.

The chains behind the UniProt entries cited, without tags or fusion partners.
UniProt Q3SYC2, whole entry: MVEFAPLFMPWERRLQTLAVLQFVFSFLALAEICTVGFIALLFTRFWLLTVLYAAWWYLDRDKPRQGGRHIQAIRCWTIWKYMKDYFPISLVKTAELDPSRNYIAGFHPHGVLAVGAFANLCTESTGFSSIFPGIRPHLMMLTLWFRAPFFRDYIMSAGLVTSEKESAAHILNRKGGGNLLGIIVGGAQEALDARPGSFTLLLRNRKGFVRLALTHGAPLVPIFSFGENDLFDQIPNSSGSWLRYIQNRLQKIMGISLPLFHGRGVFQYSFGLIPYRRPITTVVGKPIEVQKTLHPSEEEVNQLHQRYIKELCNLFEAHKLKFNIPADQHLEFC

Tests used:
recombinant human MGAT2 = recombinant human MGAT2 (Homo sapiens (Human), UniProt Q3SYC2); assay: Measurement of human MGAT2 inhibitory activity
Protocol: A full-length human MGAT2 gene to which a Flag-tag had been added at the N-terminal was inserted into pFastBac (from Invitrogen). A recombinant baculovirus was produced in accordance with the protocol for a Bac-to-Bac baculovirus expression system (produced by Invitrogen), and Sf-9 cells were infected therewith. The cells were collected and sonicated, and then the membrane fraction was collected through centrifugation. Western blotting analysis with an anti-Flag antibody was performed for the membrane fraction to confirm expression, and the membrane fraction was used as a recombinant human MGAT2 enzyme solution.
Solutions of the compounds of the present invention in DMSO were each aliquoted into 0.2-μL portions in a 384-well polystyrene microplate produced by Corning Incorporated, and 5 μL of an enzyme solution prepared with an assay buffer (100 mmol/L phosphate buffer (pH 7.4) containing 2 mmol/L DTT) and 5 μL of a substrate solution (100 mmol/L phosphate buffer (pH 7.4), 30 μmol/L 2-Oleoylglycerol, 10 μmol/L Oleoyl-CoA) were added thereto, and the resultant was stirred and centrifuged, and incubated in a moist chamber at room temperature for 1 hour. After enzymatic reaction, 50 μL of a quenching solution (containing 0.2 μmol/L Diolein-d5, 0.4% formic acid, and 50% isopropanol) containing Internal Standard (IS) was added to terminate the reaction, and the resultant was sealed in a plate produced by Shimadzu GLC Ltd., and then stirred and centrifuged, and measurement was performed by using an electrospray ionization method with a RapidFire360 and Agilent 6550 Q-TOF mass spectrometer. Diolein as a reaction product (P) of 2-Oleoylglycerol as the substrate and an ammonium adduct ion of the IS were detected, and the peak intensity ratio, P/IS, was calculated from the peak heights to evaluate the inhibitory activity. Inhibitory activities with/without addition of enzyme were defined as Control (+)/Control (−), respectively, and the respective % inhibitions were defined as 0% inhibition and 100% inhibition. The inhibitory activity was calculated from formula below with TIBCO Spotfire (produced by TIBCO Software Inc.): Inhibitory activity (%)=[1−{Sample−Control(−)}/{Control(+)−Control(−)}]*100 where Sample indicates a peak intensity ratio: P/IS, when the compound of the present invention was added.

[1] = Metabolism stability test; conditions: human liver microsomes, 30 minutes, 37° C., NADPH, 0.5 μmol/L of test compound
Protocol: Using commercially available pooled human hepatic microsomes, the compound of the present invention was reacted for a constant time, a remaining rate was calculated by comparing a reacted sample and an unreacted sample, thereby, a degree of metabolism of the compound of the present invention in liver was assessed.
A reaction was performed (oxidative reaction) at 37° C. for 0 minute or 30 minutes in the presence of 1 mmol/L NADPH in 0.2 mL of a buffer (50 mmol/L Tris-HCl pH 7.4, 150 mmol/L potassium chloride, 10 mmol/L magnesium chloride) containing 0.5 mg protein/mL of human liver microsomes. After the reaction, 50 μL of the reaction solution was added to 100 μL of a methanol/acetonitrile=1/1 (v/v) solution, mixed and centrifuged at 3000 rpm for 15 minutes. The compound of the present invention in the supernatant was quantified by LC/MS/MS, and a remaining amount of the compound of the present invention after the reaction was calculated, letting a compound amount at 0 minute reaction time to be 100%. (Result) Remaining rate was shown at 0.5 μmol/L of test compound.

[2] = Solubility test (1% DMSO addition, pH 6.8 artificial intestinal juice); conditions: 16 hours at 25° C.
sheep erythrocyte = assay: Phototoxicity test (erythrocyte photohemolysis test); conditions: sheep erythrocytes, UVA and UVB 10 J/cm^2
Protocol: An erythrocyte photohemolysis test (Wolfgang J. W. Pepe et al., ATLA29, 145-162, 2001), which was an evaluation method using effect to biomembranes and photoperoxidation as indexes, was conducted as an In vitro phototoxicity test. In this method, a solution of the compound of the present invention was prepared with dimethylsulfoxide as a medium, to which a sheep erythrocyte solution in a ratio of 2.5% (v/v) with respect to the prepared solution was added, and the thus-obtained mixed solution (concentration: 0.1 to 0.0008%) was used. The mixed solution was added to two microplates, and one of the prepared microplates was irradiated with light in UVA and UVB regions (10 J/cm^2, 290 to 400 nm) by using an ultraviolet fluorescence lamp (GL20SE lamp, SANKYO DENKI Co., Ltd., and, FL20S-BLB lamp, Panasonic Corporation), and subjected to centrifugation together with the microplate without irradiation with light, and then the absorbance (540 nm or 630 nm) of the supernatant was measured. To determine two indexes (effect to biomembranes and photoperoxidation) for evaluation of phototoxicity, the absorbance of the medium was subtracted from the absorbance obtained from the compound of the present invention for each of the cases with and without irradiation with light, and the thus-calculated values were used for the subsequent calculations. […]

[3] = read-out: IC50 (concentration exhibiting 50% enzyme inhibition), Table 53
[4] = read-out: IC50 (concentration exhibiting 50% enzyme inhibition), Table 52

SMILES | Remaining rate (%) [1] [%] | Solubility [2] [µM] | IC50 (recombinant human MGAT2; [4]) [nM] | further results
CS(=O)(=O)CC(=O)Nc1c2c(nn1-c1ccc(C#N)cn1)CC1(CN(c3ccc(C(F)(F)F)cn3)C1)NC2=O |  |  |  | IC50 (recombinant human MGAT2; [3]): 14 nM
Cc1ccc(-n2nc3c(c2NC(=O)CS(C)(=O)=O)C(=O)N[C@@]2(CCOc4cc(C5CC5)ccc42)C3)nc1 | 91.6 | >50 |  | 
Cc1ccc(-n2nc3c(c2NC(=O)CS(C)(=O)=O)C(=O)N[C@@]2(CCOc4cc(F)cc(F)c42)C3)nc1 | 104 | >50 |  | 
COCCn1nc2c(c1NC(=O)CS(C)(=O)=O)C(=O)N[C@@]1(CCc3cc(OCCCC(F)(F)F)ccc31)C2 |  |  | 120 | 
CS(=O)(=O)CC(=O)Nc1nc(CCC2CC2)nc2c1C(=O)N[C@@]1(CCc3cc(OCC(F)(F)F)ccc31)C2 |  |  | 99 | 
CS(=O)(=O)NC(=O)c1c2c(nn1CCC1CC1)C[C@]1(CCc3cc(OCCCC(F)(F)F)ccc31)NC2=O | 96.8 | 25.9 (≈ 14.4 µg/mL) | 21 | 
CS(=O)(=O)CC(=O)Nc1c2c(nn1CCC1CC1)CC1(Cc3ccc(OCC(F)(F)F)cc3C1)NC2=O (single isomer, unassigned) [I-282] |  |  | 86 | 
CS(=O)(=O)CC(=O)Nc1c2c(nn1-c1ccc(C#N)cn1)CC1(CN(c3ccc(C(F)(F)F)cc3)C1)NC2=O |  |  |  | IC50 (recombinant human MGAT2; [3]): 5.1 nM
CC(=O)NCc1c2c(nn1CCC1CC1)C[C@]1(CCc3cc(OCCCC(F)(F)F)ccc31)NC2=O | 1.88 | 15.8 (≈ 7.97 µg/mL) | 59 | 
CS(=O)(=O)CC(=O)Nc1c(-c2ccccc2)nc2n1C(=O)N[C@@]1(CCc3cc(OCC(F)(F)F)ccc31)C2 |  |  | 330 | 
CS(=O)(=O)CC(=O)Nc1c2c(nn1-c1ccccc1)C[C@]1(CCc3cc(OCCCC(F)(F)F)ccc31)NC2=O | 87.6 | 36.6 (≈ 21.1 µg/mL) |  | Phototoxicity judgement (photohemolysis rate and change in absorbance at 630 nm) (sheep erythrocyte): (−) (It was judged to be (−) when the photohemolysis rate was less than 10% and the change in the absorbance at 630 nm was less than 0.05)
CS(=O)(=O)CC(=O)Nc1c2c(nn1CCC1CC1)CC1(Cc3ccc(OCC(F)(F)F)cc3C1)NC2=O (single isomer, unassigned) [I-283] |  |  | 91 | 
